{
  "source": "ChEMBL document CHEMBL1201862",
  "about": "“PubChem BioAssay data set” (2004)",
  "note": "The other results are listed elsewhere or left out. Cut-off read from the data, not from the text of the source: active = GI50 up to about 1.1 µM and inactive = higher. These assays gave more results; the selection is not random.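 Cells were grown in 96-well plates and exposed to each compound for 48 hours at five concentrations; endpoints were interpolated linearly between bracketing concentrations, or set to the highest concentration if not reached. Here, GI50 denotes the concentration required for 50% inhibition of growth.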 For some assays here: Entries with a potency or affinity are not part of this list.",
  "data": [
    {"test_system": "NCI-H322M", "experiment": "NCI tumour cell line growth inhibition, 48 h", "values": [
      {"smiles": "COc1ccc2nccc(C=O)c2c1", "GI50": "inactive: 53.6 µM"},
      {"smiles": "O=C1Nc2ccc([N+](=O)[O-])cc2/C1=N/Nc1ccc([N+](=O)[O-])cc1[N+](=O)[O-]", "GI50": "inactive: 20.7 µM"},
      {"smiles": "O=[As](O)(O)O", "GI50": "inactive: > 100 µM"},
      {"smiles": "ClCCSc1c2ccccc2nc2ccccc12", "GI50": "inactive: 17.6 µM"},
      {"smiles": "O=[N+]([O-])c1ncn(F)c1[N+](=O)[O-]", "GI50": "inactive: > 100 µM"},
      {"smiles": "COP(C)(=O)C(N)Cc1ccccc1", "note": "(stereo unspecified)", "GI50": "inactive: > 100 µM"},
      {"smiles": "Cc1ccc2ccc3ccc4ccccc4c3c2c1.O=C1c2cc([N+](=O)[O-])ccc2-c2c1cc([N+](=O)[O-])cc2[N+](=O)[O-]", "GI50": "inactive: 4.28 µM"},
      {"smiles": "O=C1CCN2CCCC12", "note": "(stereo unspecified)", "GI50": "inactive: > 100 µM"},
      {"smiles": "O=[N+]([O-])C1([N+](=O)[O-])COCOC1", "GI50": "inactive: > 100 µM"},
      {"smiles": "CCCCCCCCCCCCCNCC(C)O", "note": "(stereo unspecified)", "GI50": "inactive: 15.6 µM"},
      {"smiles": "NNc1nc2nonc2nc1NN", "GI50": "inactive: 38.3 µM"},
      {"smiles": "COc1ccc([N+](=O)[O-])c(C[N+](C)(CCCl)CCCl)c1", "GI50": "inactive: > 100 µM"},
      {"smiles": "COc1ccc(C[N+](C)(CCCl)CCCl)c([N+](=O)[O-])c1", "GI50": "inactive: > 100 µM"},
      {"smiles": "Nc1nc2c(ncn2CCN(CCCl)CCCl)c(=O)[nH]1", "GI50": "inactive: > 100 µM"},
      {"smiles": "Cc1ccc2ccc(C)c(C)c2c1.O=[N+]([O-])c1cc([N+](=O)[O-])c(O)c([N+](=O)[O-])c1O", "GI50": "inactive: > 100 µM"},
      {"smiles": "O[C@@H]1CCN2CCC[C@H]12", "GI50": "inactive: > 100 µM"},
      {"smiles": "O[C@H]1[C@@H](O)CC2CCN3Cc4cc5c(cc4[C@H]1C23)OCO5", "note": "(stereo partly specified)", "GI50": "inactive: > 100 µM"},
      {"smiles": "Cc1[nH]c2c(C)c([N+](=O)[O-])c(C)c([N+](=O)[O-])c2c1[N+](=O)[O-]", "GI50": "inactive: 11 µM"},
      {"smiles": "Cc1ccc([N+](=O)[O-])c(C[N+](C)(CCCl)CCCl)c1", "GI50": "inactive: 19.4 µM"}
    ]},
    {"test_system": "NCI-H460", "experiment": "NCI tumour cell line growth inhibition, 48 h", "values": [
      {"smiles": "COc1ccc2nccc(C=O)c2c1", "GI50": "inactive: 37.2 µM"},
      {"smiles": "O=C1Nc2ccc([N+](=O)[O-])cc2/C1=N/Nc1ccc([N+](=O)[O-])cc1[N+](=O)[O-]", "GI50": "inactive: 20.7 µM"},
      {"smiles": "O=[As](O)(O)O", "GI50": "inactive: > 100 µM"},
      {"smiles": "ClCCSc1c2ccccc2nc2ccccc12", "GI50": "inactive: 25.5 µM"},
      {"smiles": "O=[N+]([O-])c1ncn(F)c1[N+](=O)[O-]", "GI50": "inactive: > 100 µM"},
      {"smiles": "O=[N+]([O-])C1([N+](=O)[O-])CCCc2nonc21", "GI50": "inactive: 36.1 µM"},
      {"smiles": "C[S+](N)(=O)CCC(N)P(=O)(O)O", "note": "(stereo unspecified)", "GI50": "inactive: > 100 µM"},
      {"smiles": "COP(C)(=O)C(N)Cc1ccccc1", "note": "(stereo unspecified)", "GI50": "inactive: > 100 µM"},
      {"smiles": "Cc1ccc2ccc3ccc4ccccc4c3c2c1.O=C1c2cc([N+](=O)[O-])ccc2-c2c1cc([N+](=O)[O-])cc2[N+](=O)[O-]", "GI50": "inactive: 9.18 µM"},
      {"smiles": "O=C1CCN2CCCC12", "note": "(stereo unspecified)", "GI50": "inactive: > 100 µM"},
      {"smiles": "O=[N+]([O-])C1([N+](=O)[O-])COCOC1", "GI50": "inactive: > 100 µM"},
      {"smiles": "CCCCCCCCCCCCCNCC(C)O", "note": "(stereo unspecified)", "GI50": "inactive: 7.33 µM"},
      {"smiles": "NNc1nc2nonc2nc1NN", "GI50": "inactive: 33.6 µM"},
      {"smiles": "CCCC[S+](N)(=O)CCC(N)P(=O)(O)O", "note": "(stereo unspecified)", "GI50": "inactive: > 100 µM"},
      {"smiles": "COc1ccc([N+](=O)[O-])c(C[N+](C)(CCCl)CCCl)c1", "GI50": "inactive: 71.8 µM"},
      {"smiles": "COc1ccc(C[N+](C)(CCCl)CCCl)c([N+](=O)[O-])c1", "GI50": "inactive: > 100 µM"},
      {"smiles": "Nc1nc2c(ncn2CCN(CCCl)CCCl)c(=O)[nH]1", "GI50": "inactive: > 100 µM"},
      {"smiles": "Cc1ccc2ccc(C)c(C)c2c1.O=[N+]([O-])c1cc([N+](=O)[O-])c(O)c([N+](=O)[O-])c1O", "GI50": "active: 0.0375 µM"},
      {"smiles": "O[C@@H]1CCN2CCC[C@H]12", "GI50": "inactive: 10 µM"},
      {"smiles": "O[C@H]1[C@@H](O)CC2CCN3Cc4cc5c(cc4[C@H]1C23)OCO5", "note": "(stereo partly specified)", "GI50": "inactive: > 100 µM"},
      {"smiles": "Cc1[nH]c2c(C)c([N+](=O)[O-])c(C)c([N+](=O)[O-])c2c1[N+](=O)[O-]", "GI50": "inactive: 10.5 µM"},
      {"smiles": "Cc1ccc([N+](=O)[O-])c(C[N+](C)(CCCl)CCCl)c1", "GI50": "inactive: 8.71 µM"}
    ]}
  ]
}
